Reference: US20120244120A1, “INHIBITORS OF HEMOPOIETIC CELL KINASE (P59-HCK) AND THEIR USE IN THE TREATMENT OF INFLUENZA INFECTION” (priority 2009, published 2012)

Amino acid sequences for entries named in this document (tags omitted).
UniProt Q16539, whole entry: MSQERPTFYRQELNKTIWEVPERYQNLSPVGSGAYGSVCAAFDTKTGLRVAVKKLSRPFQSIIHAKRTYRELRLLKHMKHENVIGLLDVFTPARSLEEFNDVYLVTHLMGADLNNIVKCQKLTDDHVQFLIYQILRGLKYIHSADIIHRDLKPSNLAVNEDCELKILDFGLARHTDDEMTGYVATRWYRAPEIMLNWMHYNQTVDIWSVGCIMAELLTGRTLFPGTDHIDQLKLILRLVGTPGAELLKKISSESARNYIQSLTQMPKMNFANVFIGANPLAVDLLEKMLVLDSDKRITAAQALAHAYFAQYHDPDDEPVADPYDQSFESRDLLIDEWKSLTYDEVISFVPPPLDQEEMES

Biological target: p38 MAPKα (MAPK14) (Homo sapiens, UniProt Q16539)
Experiment: p38α enzyme assay (Z'-LYTE FRET, via MAPKAP-K2 activation)
Assay type: biochemical
Conditions: 2 hr pre-incubation, ATP 10 μM

CNC(=O)Nc1cnccc1COc1ccc(NC(=O)Nc2cc(C(C)(C)C)nn2-c2ccc(C)cc2)c2ccccc12
IC50: 2.1 nM
